Here are results for 1 substance from patent US6365187B2, “Bioadhesive microspheres and their use as drug delivery and imaging systems” (priority 1992, dated 2002).

For the series the following is noted: rat, in vivo.

With “poly[fumaric-co-sebacic anhydride] [P(FA:SA) (20:80)]”, the “retention time in the intestine” value came to 30 h. Further, the “time after which cleared from the stomach” value (po) was found to be 35 h.
